According to patent publication US6365187B2, “Bioadhesive microspheres and their use as drug delivery and imaging systems” (priority 1992, dated 2002):

Settings: rat, in vivo

Question: With “poly[fumaric-co-sebacic anhydride] [P(FA:SA) (20:80)]” as the substance, how does the “retention time in the intestine” value read?
Answer: 30 h

Question: What about the “time after which cleared from the stomach” value (po) of the same substance?
Answer: 35 h
